Here are results for one molecule from ChEMBL document CHEMBL1138860, “Design, synthesis, and evaluation of a potent, cell-permeable, conformationally constrained second mitochondria derived activator of caspase (Smac) mimetic” (J Med Chem, 2006).

Sequences of proteins named here, by UniProt entry; tags and fusion partners are left off.
UniProt P98170, whole entry: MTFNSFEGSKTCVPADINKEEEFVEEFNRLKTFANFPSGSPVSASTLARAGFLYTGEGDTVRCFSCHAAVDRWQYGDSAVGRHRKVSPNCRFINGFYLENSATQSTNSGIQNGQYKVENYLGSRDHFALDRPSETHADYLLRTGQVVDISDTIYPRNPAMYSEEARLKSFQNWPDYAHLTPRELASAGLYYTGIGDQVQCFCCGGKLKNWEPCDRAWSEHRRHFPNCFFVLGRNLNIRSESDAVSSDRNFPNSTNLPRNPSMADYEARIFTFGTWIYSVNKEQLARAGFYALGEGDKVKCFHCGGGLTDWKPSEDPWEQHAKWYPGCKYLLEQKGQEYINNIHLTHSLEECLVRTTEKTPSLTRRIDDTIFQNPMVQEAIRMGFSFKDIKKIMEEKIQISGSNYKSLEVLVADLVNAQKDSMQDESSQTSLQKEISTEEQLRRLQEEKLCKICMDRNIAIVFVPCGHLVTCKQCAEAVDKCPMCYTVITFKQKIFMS

This experiment concerns the target E3 ubiquitin-protein ligase XIAP (Homo sapiens, UniProt P98170). The experiment in a line: Binding affinity to recombinant XIAP BIR3 by FP assay.

As a reminder, the Ki is the dissociation constant of the complex between target and ligand, obtained from inhibition or displacement. On to `CC[C@H](N)C(=O)N[C@H]1CCC[C@H]2CC[C@@H](C(=O)NC(c3ccccc3)c3ccccc3)N2C1=O`, for which the Ki came to 25 nM.
